The target in this assay is T1, tripeptidase of L.lactis subsp. cremoris Wg2 (Lactococcus lactis subsp. cremoris, UniProt P0C2T7).
T1 sequence (P0C2T7 1-413): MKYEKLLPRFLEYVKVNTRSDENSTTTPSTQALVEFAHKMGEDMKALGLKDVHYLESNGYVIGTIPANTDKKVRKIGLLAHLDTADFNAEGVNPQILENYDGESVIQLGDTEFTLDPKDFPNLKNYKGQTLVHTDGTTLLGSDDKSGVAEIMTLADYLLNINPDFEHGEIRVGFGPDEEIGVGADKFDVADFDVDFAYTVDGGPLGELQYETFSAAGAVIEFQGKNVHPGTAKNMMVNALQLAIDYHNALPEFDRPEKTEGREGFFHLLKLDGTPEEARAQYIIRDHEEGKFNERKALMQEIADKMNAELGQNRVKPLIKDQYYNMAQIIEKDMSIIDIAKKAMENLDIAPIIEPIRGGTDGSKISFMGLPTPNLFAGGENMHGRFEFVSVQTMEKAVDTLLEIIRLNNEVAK
Nature of the assay: Substrate specificity: peptide hydrolysis analysed by TLC. The note with it: peptide hydrolysis by the purified peptidase, 2 mM substrate in 20 mM HEPES (pH 7.0), 60 min at 30°C. On the set-up: key: + : hydrolysis; - : no hydrolysis. Format: biochemical.

For `C[C@H](N)C(=O)N1CCC[C@H]1C(=O)NCC(=O)O` [Ala-Pro-Gly], the activity result was “-”. The entry for `CC(C)C[C@H](NC(=O)[C@@H]1CCCN1C(=O)[C@@H](N)C(C)C)C(=O)O` [Val-Pro-Leu] is “-”.

These data come from patent publication EP0440303A1 (PROBICOM RESEARCH B.V., priority 1990, dated 1991).
